# Experimental data: PubChem BioAssay AID652083 (The Scripps Research Institute Molecular Screening Center, 2013)
# The list shows a part of the results. Calls of active or inactive are those of the source.
# Tested on: 5-HT transporter
# Test: PubChem AID 652083
# Details: CEREP radioligand binding panel, % inhibition at 10 uM, hits give high values
smiles,measurement,value
COC(=O)c1cc(Br)cnc1N1CCC(NC2CCCCC2)C(O)C1 (stereo unspecified),inhibition of specific binding,inactive: 24%
